Yeast mating assay 2: variants of the scFv Ab-95

The measurements come from Engelhart et al. 2022 (doi:10.1038/s41597-022-01779-4) through the FLAb antibody collection.

Antigen: PDVDLGDISGINAS, a 14-residue peptide of the SARS-CoV-2 spike HR2 region.

Ab-95 is the parent antibody, in scFv form: VH, then a 15-residue (Gly4Ser)3 linker, then VL. The heavy chain is unchanged in all variants.
VH: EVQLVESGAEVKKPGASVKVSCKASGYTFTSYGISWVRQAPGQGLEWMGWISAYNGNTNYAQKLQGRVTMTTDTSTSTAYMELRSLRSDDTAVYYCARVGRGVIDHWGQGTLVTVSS
VL: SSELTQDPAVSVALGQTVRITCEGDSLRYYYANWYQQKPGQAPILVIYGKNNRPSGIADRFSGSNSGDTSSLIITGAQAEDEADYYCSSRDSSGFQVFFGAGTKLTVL

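Phage display of a naive human antibody library on the peptide gave the parent. Variants in AAYL52 differ from the parent at up to three CDR positions; double and triple changes were sampled at random. The scFvs were displayed on barcoded MATa yeast, the peptide on MATalpha yeast. The frequency of each diploid, read from paired DNA barcodes, reflects how well the two displayed proteins bind. Read counts were normalised to the haploid input and turned into Kd by a linear fit to BCL2-family pairs of known affinity, for each replicate. The assay was run in three technical replicates.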

Each variant is given by its three light chain CDRs, as the data file delimits them; those of the parent are EGDSLRYYYAN, GKNNRPS, SSRDSSGFQVF.
The read-out is the apparent dissociation constant on a log10 scale (nM): the lower, the stronger.
The mean shown is taken over the replicates in which the pair was detected.
Where no diploid with the target was found in that replicate, the entry reads "n.d.": below detection, most likely a poor binder, though not proof of it.
Empty control strains, which show no peptide, gave a signal in 28% of pairings with library AAYL52; the median was 3.91 and 95% of these signals were weaker than 2.90. No background was subtracted. The control count says in how many pairings with the empty strains this scFv gave a signal, with their mean in brackets.

CDR-L1,CDR-L2,CDR-L3,"replicates, log10 nM","log10 Kd (nM), mean",empty controls
EGDSLRYYYAN,GKYWRAS,SSRDSSGFQVF,4.60 / n.d. / 3.68,4.14,4 of 9 (3.72)
EGDSLRYYAAN,GKNNRPS,SSRDPSGFQVF,2.40 / 2.06 / 1.67,2.04,0 of 9
EGWSLRYYYAN,VKNNRPS,SSRDSSGFDVF,3.92 / n.d. / 3.62,3.77,5 of 9 (3.79)
EGDSLRYYSIN,GKNNRPS,SSRDSCGFQVF,2.26 / 2.67 / 1.78,2.24,4 of 9 (4.26)
EGESLRYYYAN,GKNNRPS,SMRDSSGFPVF,2.56 / 3.02 / 2.74,2.77,2 of 9 (3.95)
EGDSLRYYYAN,GKNNRPS,SSVDSSDFQVF,n.d. / n.d. / n.d.,n.d.,1 of 9 (3.08)
EGDVLRYYYAN,GKNNRPS,SSRRYSGFQVF,4.06 / 3.74 / n.d.,3.90,1 of 9 (3.35)
DGDSIRYYPAN,GKNNRPS,SSRDSSGFQVF,2.38 / 2.45 / 1.63,2.15,5 of 9 (3.88)
EGDSLRYVYAQ,GKNNPPS,SSRDSSGFQVF,3.91 / n.d. / 4.03,3.97,3 of 9 (3.67)
EGDSLRYYYAN,LKLNRPS,SSRDSSGFGVF,3.63 / 3.80 / n.d.,3.72,3 of 9 (4.47)
EGDSLRYYYAN,GKNSRPS,SSRDSSGFDTF,3.36 / 2.95 / n.d.,3.16,2 of 9 (3.80)
EGDSLRYTYAQ,GKMNRPS,SSRDSSGFQVF,3.06 / 3.18 / 2.76,3.00,2 of 9 (3.12)
EGDSYRYYYAN,GKNNRPP,SSRDSSGFQVN,n.d. / n.d. / 4.58,4.58,2 of 9 (3.86)
EGDSLSYCYAN,GKCNRPS,SSRDSSGFQVF,n.d. / n.d. / n.d.,n.d.,2 of 9 (4.02)
EGDSLRYYYAN,GKLNAPS,SCRDSSGFQVF,n.d. / n.d. / 4.30,4.30,6 of 9 (3.80)
ESDSLRVYYAN,GKNNRPS,SSRDSSGFAVF,3.43 / 3.61 / n.d.,3.52,5 of 9 (4.23)
EGDSLRYYYFN,GKKNRPS,TSRDSSGFQVF,n.d. / 3.83 / n.d.,3.83,1 of 9 (3.23)
EGDSLRYYYSN,GKNQRPS,SSRDTSGFQVF,2.70 / 2.57 / 2.91,2.73,4 of 9 (4.01)
EGDSLRYYYNN,GKNNRVE,SSRDSSGFQVF,3.80 / n.d. / 3.95,3.87,3 of 9 (4.28)
EGDSLRYYYAN,GCNNRPS,SNRDSSIFQVF,4.21 / n.d. / n.d.,4.21,1 of 9 (4.52)
EGDSLRYYEAN,GKNNRPS,SSGDSSGKQVF,n.d. / 4.83 / 3.76,4.30,2 of 9 (3.52)
EGDSLRYYYAN,HKNNRGS,DSRDSSGFQVF,3.69 / 3.58 / n.d.,3.64,3 of 9 (4.29)
EKDSLFYYYAN,GKNNRPS,MSRDSSGFQVF,2.92 / 2.98 / n.d.,2.95,3 of 9 (4.11)
EGDSLRYYYMN,GKNNRPS,SKRDSSGFQVF,3.18 / n.d. / 3.71,3.44,3 of 9 (4.24)
EGDSLRYTYAN,GKNNRPS,TTRDSSGFQVF,3.83 / 3.35 / 2.66,3.28,1 of 9 (4.15)
TGDSLRYFYAN,GKNNRPS,SSRDSSDFQVF,3.80 / n.d. / n.d.,3.80,2 of 9 (4.00)
EGDSVRYYYAN,GKNNRPS,DSRDSSGFSVF,n.d. / n.d. / 4.37,4.37,4 of 9 (3.93)
EGDSLRYYYAV,GKNNRPS,SMRDSSGFQVF,n.d. / 3.31 / n.d.,3.31,0 of 9
EGDHLRYYYAN,GKNNGPS,SDRDSSGFQVF,3.72 / n.d. / n.d.,3.72,2 of 9 (3.20)
EGDSLRYYYAN,GANNRPS,SSIDSSGFQVQ,n.d. / 5.35 / n.d.,5.35,0 of 9
EGDSLRYYYAD,GKNNRNS,FSRDSSGFQVF,4.04 / n.d. / 3.91,3.97,3 of 9 (3.47)
EGDSPRYYYAN,ASNNRPS,SSRDSSGFQVF,n.d. / 3.34 / 4.25,3.79,3 of 9 (3.78)
EGDELRNYQAN,GKNNRPS,SSRDSSGFQVF,2.19 / 1.97 / 1.89,2.02,3 of 9 (3.50)
EGDSLRYYYAT,GENNRPS,SSDDSSGFQVF,2.94 / 4.11 / 3.35,3.47,3 of 9 (3.64)
EGDSLREYYAN,GKNNRPP,SSRDSTGFQVF,n.d. / n.d. / n.d.,n.d.,0 of 9
EGDSLRYYVAN,GKNNRPN,SSRDESGFQVF,2.80 / 2.82 / 3.05,2.89,1 of 9 (3.86)
HGDSLGYYYAN,GKNNRPS,SSRDSSGFDVF,2.29 / 2.43 / 2.09,2.27,3 of 9 (3.97)
EGQSLLYYYAN,GKNRRPS,SSRDSSGFQVF,2.52 / 2.98 / 2.40,2.63,1 of 9 (3.50)
EGDNLRYYYAN,GKNNRPS,WSRWSSGFQVF,n.d. / 5.52 / 3.71,4.61,2 of 9 (4.18)
EGDSLQYYYAN,GKNNRPS,SQRDSSGFWVF,3.53 / 2.98 / 3.32,3.27,2 of 9 (4.00)
AGDSLRYYYAN,GKNNRPS,SSRDSKMFQVF,n.d. / n.d. / n.d.,n.d.,1 of 9 (4.16)
EGDSLRYYYAN,KKNNRPS,SSWDFSGFQVF,n.d. / n.d. / n.d.,n.d.,1 of 9 (3.73)

Repeated from above, the 3 best binders with a signal in all replicates:

| CDR-L1 | CDR-L2 | CDR-L3 | replicates, log10 nM | log10 Kd (nM), mean | empty controls |
|---|---|---|---|---|---|
| EGDELRNYQAN | GKNNRPS | SSRDSSGFQVF | 2.19 / 1.97 / 1.89 | 2.02 | 3 of 9 (3.50) |
| EGDSLRYYAAN | GKNNRPS | SSRDPSGFQVF | 2.40 / 2.06 / 1.67 | 2.04 | 0 of 9 |
| DGDSIRYYPAN | GKNNRPS | SSRDSSGFQVF | 2.38 / 2.45 / 1.63 | 2.15 | 5 of 9 (3.88) |

In this assay the parent's reference entry averaged 2.31; its copy inside this library read 2.25.